We go through four molecules from ChEMBL document CHEMBL5365484, “Discovery and Characterization of Novel CNS-Penetrant GPR55 Agonists” (J Med Chem, 2023).

Amino acid sequences for entries named in this document (tags omitted).
UniProt P21554, whole entry: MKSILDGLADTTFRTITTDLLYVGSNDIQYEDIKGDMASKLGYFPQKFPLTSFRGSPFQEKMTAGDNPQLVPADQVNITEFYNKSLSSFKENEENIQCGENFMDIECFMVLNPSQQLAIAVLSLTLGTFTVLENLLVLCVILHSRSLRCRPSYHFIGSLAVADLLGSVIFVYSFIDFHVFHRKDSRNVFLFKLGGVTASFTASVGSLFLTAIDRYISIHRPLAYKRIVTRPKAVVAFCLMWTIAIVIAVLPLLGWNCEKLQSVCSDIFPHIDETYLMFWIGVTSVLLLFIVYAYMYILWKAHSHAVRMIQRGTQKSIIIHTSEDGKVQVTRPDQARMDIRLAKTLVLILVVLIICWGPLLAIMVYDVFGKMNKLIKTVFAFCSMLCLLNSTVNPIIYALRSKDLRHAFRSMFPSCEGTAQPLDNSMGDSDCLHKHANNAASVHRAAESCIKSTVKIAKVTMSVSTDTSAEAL
UniProt P34972, whole entry: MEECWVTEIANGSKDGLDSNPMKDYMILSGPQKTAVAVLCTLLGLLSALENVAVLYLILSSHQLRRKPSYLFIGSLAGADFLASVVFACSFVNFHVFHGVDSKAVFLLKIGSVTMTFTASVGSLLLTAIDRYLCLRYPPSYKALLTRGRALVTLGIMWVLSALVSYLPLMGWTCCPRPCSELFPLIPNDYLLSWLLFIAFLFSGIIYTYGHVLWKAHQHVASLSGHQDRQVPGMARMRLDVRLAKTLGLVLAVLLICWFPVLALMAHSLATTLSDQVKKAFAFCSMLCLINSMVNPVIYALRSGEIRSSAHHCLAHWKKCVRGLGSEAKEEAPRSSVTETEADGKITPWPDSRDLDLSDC
UniProt Q01959, whole entry: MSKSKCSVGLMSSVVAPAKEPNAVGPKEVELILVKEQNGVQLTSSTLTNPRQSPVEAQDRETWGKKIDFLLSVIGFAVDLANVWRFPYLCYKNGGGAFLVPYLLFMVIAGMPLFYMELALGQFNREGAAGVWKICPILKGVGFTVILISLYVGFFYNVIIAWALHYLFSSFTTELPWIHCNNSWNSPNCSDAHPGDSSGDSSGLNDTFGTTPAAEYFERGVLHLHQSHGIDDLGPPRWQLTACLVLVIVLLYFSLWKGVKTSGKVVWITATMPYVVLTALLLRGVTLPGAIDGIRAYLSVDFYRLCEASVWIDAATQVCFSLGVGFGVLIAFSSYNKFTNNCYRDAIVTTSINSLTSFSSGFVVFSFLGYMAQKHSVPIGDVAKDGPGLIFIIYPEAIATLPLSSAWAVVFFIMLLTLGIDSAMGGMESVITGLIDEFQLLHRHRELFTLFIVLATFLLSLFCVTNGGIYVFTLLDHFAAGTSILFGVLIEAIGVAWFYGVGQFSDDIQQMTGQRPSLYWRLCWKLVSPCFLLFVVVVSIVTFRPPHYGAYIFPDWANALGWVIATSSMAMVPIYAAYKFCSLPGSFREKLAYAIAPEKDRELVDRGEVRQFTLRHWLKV
UniProt P23975, whole entry: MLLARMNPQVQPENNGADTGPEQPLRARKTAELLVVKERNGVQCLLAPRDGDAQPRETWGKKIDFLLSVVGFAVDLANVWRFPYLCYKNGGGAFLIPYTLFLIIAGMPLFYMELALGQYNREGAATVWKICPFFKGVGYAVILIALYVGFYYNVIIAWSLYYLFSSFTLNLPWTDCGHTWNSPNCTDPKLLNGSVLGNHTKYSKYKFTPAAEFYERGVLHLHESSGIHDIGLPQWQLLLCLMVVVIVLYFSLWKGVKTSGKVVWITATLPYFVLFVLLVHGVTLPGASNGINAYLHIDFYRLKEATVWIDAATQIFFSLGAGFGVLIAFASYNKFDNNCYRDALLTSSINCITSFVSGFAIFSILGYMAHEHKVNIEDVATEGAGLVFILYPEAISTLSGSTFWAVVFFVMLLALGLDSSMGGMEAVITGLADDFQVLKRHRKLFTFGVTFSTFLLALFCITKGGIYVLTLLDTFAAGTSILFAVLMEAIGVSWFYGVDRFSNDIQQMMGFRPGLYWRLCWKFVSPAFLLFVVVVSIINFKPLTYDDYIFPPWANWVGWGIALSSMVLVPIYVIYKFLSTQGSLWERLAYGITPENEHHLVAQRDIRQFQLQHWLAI
UniProt P41595, whole entry: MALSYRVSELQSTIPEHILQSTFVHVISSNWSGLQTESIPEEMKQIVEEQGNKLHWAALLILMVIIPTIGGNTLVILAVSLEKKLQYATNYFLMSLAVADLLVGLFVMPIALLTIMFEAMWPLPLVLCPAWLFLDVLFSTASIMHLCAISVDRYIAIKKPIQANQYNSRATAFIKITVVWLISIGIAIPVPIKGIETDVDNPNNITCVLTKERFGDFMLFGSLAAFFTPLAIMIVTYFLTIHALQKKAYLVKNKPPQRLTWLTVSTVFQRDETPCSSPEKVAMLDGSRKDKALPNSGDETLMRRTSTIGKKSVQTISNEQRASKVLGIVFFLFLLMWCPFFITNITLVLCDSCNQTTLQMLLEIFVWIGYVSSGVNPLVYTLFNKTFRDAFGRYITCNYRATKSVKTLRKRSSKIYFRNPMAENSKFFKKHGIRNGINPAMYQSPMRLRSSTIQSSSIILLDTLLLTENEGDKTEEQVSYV

The source made the active and inactive calls. No cut-off for these calls is given here.

In test [1] the target is Cannabinoid receptor 1 (Homo sapiens) (UniProt P21554). Kind of test: Displacement of [3H]SR141716A from recombinant human CB1 receptor at 10 uM by radioligand binding assay. Background: In a radioligand displacement assay an active substance lowers the binding of a labelled ligand.
Test [2] addresses Cannabinoid receptor 2 (Homo sapiens) (UniProt P34972). Kind of test: Displacement of 3H]WIN-55212-2 from recombinant human CB2 receptor at 10 uM by radioligand binding assay.
Test [3] has as its target Sodium-dependent dopamine transporter (Homo sapiens) (UniProt Q01959). Kind of test: Displacement of [125I]RTI-55 from recombinant human dopamine transporter at 10 uM by radioligand binding assay.
The target in test [4] is Sodium-dependent noradrenaline transporter (Homo sapiens) (UniProt P23975). Kind of test: Displacement of [125I]RTI-55 from recombinant human norepinephrine transporter at 10 uM by radioligand binding assay.
In test [5] the target is 5-hydroxytryptamine receptor 2B (Homo sapiens) (UniProt P41595). The experiment in a line: Displacement of [3H]LSD from recombinant human 5-HT2B receptor at 10 uM by radioligand binding assay.

Regarding `C[C@@H](Nc1cnc(-c2cncc(CC(F)(F)F)c2)cn1)c1ccc(F)cc1`, the inhibition entry in test [1] and in test [2] was “inactive” throughout. The results for the inhibition in test [3] and in test [4] were 73% and 64%, respectively.
Consider `C[C@@H](Nc1ncc(-c2ccc3oc(=O)n(C)c3c2)nn1)c1ccc(F)cc1`, for which the inhibition entry in test [1] and in test [2] was “inactive” each time. The inhibition in test [3] amounted to 53%; in test [4] it was 52%.
Consider `C[C@@H](Nc1ccc(-c2cccnc2)cn1)c1ccc(F)cc1`, for which the inhibition in test [1] stood at 51%; in test [5] it was 60%; in test [4], 83.7%.
As to `C[C@@H](Nc1ncc(-c2cncc(S(C)(=O)=O)c2)cn1)c1ccc(F)cc1`, the inhibition result in test [1] and in test [2] was “inactive” throughout. Besides, the inhibition in test [3] amounted to 70%; in test [4], 41%.

As usually defined, the inhibition is the change of the read-out against control, counted positive when it falls.
